The target in test [1] is T1, human BRS-3-receptor (Homo sapiens, UniProt P32247).
T1 sequence (P32247 1-399): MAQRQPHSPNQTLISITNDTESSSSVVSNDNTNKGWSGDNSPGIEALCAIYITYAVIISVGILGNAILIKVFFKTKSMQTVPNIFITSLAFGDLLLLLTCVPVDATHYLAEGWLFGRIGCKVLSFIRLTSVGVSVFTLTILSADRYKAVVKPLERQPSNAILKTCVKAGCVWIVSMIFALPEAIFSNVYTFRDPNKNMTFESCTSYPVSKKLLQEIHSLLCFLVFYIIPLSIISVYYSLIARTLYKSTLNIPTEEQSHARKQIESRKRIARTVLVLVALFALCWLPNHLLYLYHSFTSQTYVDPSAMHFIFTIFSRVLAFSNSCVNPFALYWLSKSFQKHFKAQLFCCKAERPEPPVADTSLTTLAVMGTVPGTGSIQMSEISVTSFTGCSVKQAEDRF
Kind of test: p42/44 MAPK phosphorylation. As to conditions: NCI-H510. Format: cell-based.

Test [2] deals with GRPR. Format: cell-based, human. As to conditions: GRP 1 μM; Balb-3T3 BRS-3 transfected; control 2487 ± 185.

For `O[C@@](Cc1nc(CC2(C(F)(F)F)CC2)c[nH]1)(c1ccc(-n2cccn2)cc1)C(F)(F)F` [MK-5046, (2S)-1,1,1-trifluoro-2-[4-(1H-pyrazol-1-yl)phenyl]-3-(4-[[1-(trifluoromethyl)cyclopropyl]methyl]-1H-imidazol-2-yl)propan-2-ol], in test [1], the “p42/44 phosphorylation at 10 nM relative to 100 nM MK-5046” value worked out at 1.3 fold. In the case of gastrin-releasing peptide [GRP], the “[3H]IP (DPM)” value in test [2] was determined as 2537 ± 769 DPM.

The record behind these values is publication PMC6159918 (Peptides, 2018).
